Legend:
LN-229 cells = assay: 1,536-well high-content imaging ALDEFLUOR assay, LN-229; conditions: fully automated assay, Fig 5
ALDH1A2 = conditions: read-out: Reported Biochemical IC50, ALDH1A2; reported ALDH target 1A2; cited from earlier work
ALDH1A1 = conditions: read-out: Reported Biochemical IC50, ALDH1A1; reported ALDH target 1A1; cited from earlier work
Human ALDH2 = Human ALDH2 (Homo sapiens, UniProt P05091); assay: 1,536-well enzymatic assay (NADH fluorescence), ALDH2; conditions: read-out: Biochemical IC50 ALDH2; validation set; 75 nM enzyme, NAD+ and propionaldehyde
ALDH1A3 = conditions: read-out: Reported Biochemical IC50, ALDH1A3; reported ALDH target 1A3; cited from earlier work
ALDH2 = conditions: read-out: Reported Biochemical IC50, ALDH2; reported ALDH target 2; cited from earlier work

Protein sequences, listed by entry. Tags and fused reporters are not part of them. Residues count along the entry.
UniProt P05091, 18-517 limits assumed: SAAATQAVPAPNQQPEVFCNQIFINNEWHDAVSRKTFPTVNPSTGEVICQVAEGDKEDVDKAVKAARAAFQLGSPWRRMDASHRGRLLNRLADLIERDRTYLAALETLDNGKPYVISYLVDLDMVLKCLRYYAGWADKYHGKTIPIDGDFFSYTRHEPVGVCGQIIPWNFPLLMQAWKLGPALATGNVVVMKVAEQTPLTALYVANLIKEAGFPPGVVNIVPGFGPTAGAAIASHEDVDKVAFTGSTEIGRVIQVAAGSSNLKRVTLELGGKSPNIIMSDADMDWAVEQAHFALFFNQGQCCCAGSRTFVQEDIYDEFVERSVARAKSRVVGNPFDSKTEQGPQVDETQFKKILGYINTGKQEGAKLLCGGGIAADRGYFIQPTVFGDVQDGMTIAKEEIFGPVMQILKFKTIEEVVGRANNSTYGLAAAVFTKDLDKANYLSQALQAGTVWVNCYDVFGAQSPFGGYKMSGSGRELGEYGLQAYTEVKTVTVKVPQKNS

Structure (SMILES)	Inhibition of BAAA turnover in LN-229 (ALDH1A1-negative cells) (LN-229 cells)	IC50 (ALDH1A2) [nM]	IC50 (ALDH1A1) [nM]	IC50 (Human ALDH2) [nM]	IC50 (ALDH1A3) [nM]	IC50 (ALDH2) [nM]
CCC(SC1=Nc2ccccc2C2=NC(C(C)CC)C(=O)N12)C(=O)Nc1ccccc1C (stereo not shown)	inhibited BAAA turnover only in ALDH1A1-expressing cells	–	–	–	–	–
Cc1cc(N2Cc3ccccc3C2)ccc1C=O	–	210	220	36400	170	–
O=Cc1ccc(N2Cc3ccccc3C2)cc1	–	800	450	2540	1300	1700
